System: apoptotic hepatocytes
Conditions: mouse, in vivo
Method: Massive hepatic apoptosis can be induced within 1–2 hr in mice following intravenous injection of anti-Fas antibody (Ogasawara J. et al., 1993, Nature, 364, 806–809). […] Five-weeks-old male BALB/c mice were injected intravenously with 10 μg/animal of purified hamster anti-Fas mAb (Jo2, PharMingen, San Diego, Calif.) using the model described by Ogasawara et. al. (Nature, 1993, 364, 806–809). […] Injections were performed at different time intervals between 5 min–2 hr after antibody treatment. […] All animals were killed 2 hr after administration of antibody followed by organ removal. Heart, lung and liver were collected. Liver were sectioned transversely across the mid-portion of each lobe; organs were fixed in phosphate-buffered formalin for histological and immunohisto-chemical analyses.
Formalin fixed paraffin-embedded tissues were sectioned (5 μm) for staining with Hematoxylin/Eosin or other techniques. […]
Liver sections from different lobes were used for detection of stained apoptotic cells compared to normal cells. Using light microscopy (×400), twenty fields of stained cells were evaluated. […] The stained cell's score (%) corresponds to the mean of the values for the twenty evaluated fields. […]
To quantitate the microscopic examination of the pharmacokinetics studies, the number of stained cells from 20 microscopic fields was counted.

## Myristate-KVSFFCKNKEKKC-K (SEQ ID NO:1) (biotin) [NST513]
  apoptotic cells in liver sections of control animals injected with the compound alone: No evidence of apoptotic cells
  time of peak staining of apoptotic cells in liver after injection: 60 min

Source: patent US7196063B1, “Peptides and pharmaceutical compositions comprising same” (NST NeuroSurvival Technologies Ltd., priority 1999, dated 2007)
